Structures can show the parent of a compound that is named as a salt.
Assay: in vivo
Conditions: mouse, Table 6, oral, male dd-strain mice
Text: The test compounds were orally administered to male dd-strain mice weighing 20-25 g.

CC(CCc1ccccc1)NCC(O)c1ccc(O)c(C(N)=O)c1 (stereo not shown) [Reference compound, 5-[1-hydroxy-2-(1-methyl-3-phenylpropyl)aminoethyl] salicylamide hydrochloride, reference compound]
LD50: 760 to 1000 mg/kg

From patent US4450115A, “Amino-alcohol derivatives” (Kyowa Hakko Kogyo Co., Ltd., priority 1979, dated 1984)
